The values below are quoted from earlier work in patent US11987637B1, “Prevention of disulfide bond reduction during recombinant production of polypeptides” (Genentech, Inc., priority 2007, dated 2024).

The test system of this series is HER2. The settings on record: patients with extensive prior anti-cancer therapy; cited from earlier work.

For the substance “trastuzumab: recombinant humanized version of the murine HER2 antibody 4D5”, the clinical activity entry is recorded as “clinically active”.
